Bioassay records (PubChem)
DYRK1A inh: inhibitors of rat Dyrk1A kinase | ADP-Glo luminescence, NFATc1 peptide | Q63470 | inhibition, % at 12.5 µM | 0.43% of 310,000 active; in the data active means inhibition above about 50%;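 further: plate controls were vehicle with enzyme for no effect and no enzyme for full effect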
CAL PDZ FP-1: CAL PDZ (human) peptide binding inhibition | Q9HD26 | inhibition, % at 24.9 µM | 0.92% of 300,000 active | purified CAL PDZ, TMR-peptide fluorescence polarization, 1 h | AID 602252;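 active means mean inhibition of at least 30% with at least half of replicates also reaching 30%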;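 further: 0% = DMSO neutral control and 100% = excess unlabeled competitor peptide PRC23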
dFosB act-1: activators of mouse delta FosB homodimer. P13346. AID 493131. activation, % at 25 µM. purified delta FosB, TAMRA-CDK5 oligo fluorescence polarization; percent of positive-control signal above neutral wells. 0.99% of 340,000 active;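 active means mean activation above about 17%, with every replicate also reaching it, limit read from the data, passing the limit was not always enough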
Yeast UUG start: modulators of start codon recognition fidelity in yeast; activity score, % at 18.7 µM; actives 0.13% (n = 350,000); S. cerevisiae UUG-firefly luciferase reporter, luminescence/redox ratio;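 active = replicate mean at a twofold rise or more, about +100% in these data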;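 note: firefly luciferase made from a UUG start codon reports start codon fidelity; reporter light over untreated wells divided by growth signal over untreated wells; some hits fall short of that in this replicate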
CAL PDZ FP-2: blocks peptide binding to human CAL PDZ domain. purified CAL PDZ, TMR-peptide fluorescence polarization, 1 h. inhibition, % at 20 µM. 0.02% of 330,000 active;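 active means highest replicate inhibition of at least 40%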;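 further: plate controls were DMSO neutral control wells for no effect and unlabeled competitor peptide control wells for full effect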
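Material – purified CerCALP PDZ construct · Detection – FP readout, S and P plane fluorescence · Measure – percent inhibition from loss of millipolarization · Controls – unlabelled peptide for full inhibition, DMSO wells as neutral · Probe or stimulus – TMR-labelled reporter peptide T*-PRC34 bound in PDZ groove · Times – 1 h at RT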
CDK5 p35 inh: inhibitors of human CDK5/p35 kinase; Q00535+Q15078; inhibition, % at 10 µM; AID 488839; 0.01% of 330,000 active; Recombinant CDK5/p35, ADP-Glo luminescence, 60 min;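 active means highest replicate inhibition of at least 50% and at least 75% of replicates reaching 50%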;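 further: plate controls were DMSO neutral control for no effect and GW8510 at 10 µM for full effect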
dFosB act-2: activators of mouse delta FosB homodimer DNA binding | activation, % at 24.9 µM | shares compounds with dFosB act-1 | 2,400 tested, under 10 active | purified delta FosB, TAMRA-CDK5 oligo fluorescence polarization; normalised: neutral wells 0, positive control 100;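 active means highest replicate activation at or above 34% and every replicate reaching that threshold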;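 further: higher polarization means more probe DNA bound by delta FosB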
* hit, by the source's call; . = no result given. Sampled rows, rich in hits. Any-hit rate of the full collection: about 1.7%.

SMILES	DYRK1A inh	CAL PDZ FP-1	dFosB act-1	Yeast UUG start	CAL PDZ FP-2	CDK5 p35 inh	dFosB act-2
COc1cc2[nH]c(=O)n(CCCC(=O)N3CC=C(c4ccccc4)CC3)c(=O)c2cc1OC	0.6	-4.3	-17.8	3.0	-1.1	-1.3	.
COc1cccc2c1[C@@H]1CN(CCCCn3c(=O)[nH]c4c(sc5ncc(-c6ccccc6)nc54)c3=O)C[C@@H]1CO2	6.4	-2.5	39.5*	9.6	-1.8	-2.3	-0.4
CCOC(=O)c1sc2nc(C)n(N)c(=O)c2c1C	-4.2	-0.7	-12.6	.	-0.8	0.5	.
CCOC(=O)c1sc2nc(C)[nH]c(=S)c2c1C	-2.0	1.6	20.6*	.	0.1	-1.2	2.8
Cc1ccc2nc(NC(=O)CNS(=O)(=O)c3ccc(Br)s3)sc2c1	-0.8	.	19.4*	-8.7	-2.2	-8.0	-4.7
Cc1ccc2nc(NC(=O)CN(C)S(=O)(=O)c3cccc4nsnc34)sc2c1	0.6	-1.9	20.6*	-25.1	-2.7	-1.8	1.7
C[C@@H]1CCCCO[C@H](CN(C)Cc2ccccc2)[C@H](C)CN([C@H](C)CO)C(=O)c2cc(NC(=O)Cc3ccccc3)ccc2O1	.	.	.	19.5	.	.	.
Cc1ccc(S(=O)(=O)N(C)C[C@@H]2OCCCC[C@H](C)Oc3ccc(NS(=O)(=O)c4ccccc4)cc3C(=O)N([C@H](C)CO)C[C@H]2C)cc1	.	.	.	-4.8	.	.	.
Cc1nn(C)cc1NC(=O)C[C@H]1CC[C@@H]2[C@@H](COc3ccc(NC(=O)C(C)C)cc3C(=O)N2C)O1	.	.	.	-16.4	.	.	.
O=C(Nc1ccc(CN2CCOCC2)cc1)c1ccc(Br)o1	2.9	3.0	-6.0	-17.3	-1.5	1.6	.
CC(=O)Nc1ccc(NC(=O)c2ccc(-c3ccc([N+](=O)[O-])cc3)o2)cc1	4.9	-2.2	29.2*	-13.6	16.3	-0.2	3.8
O=C(Nc1ccc(CN2CCOCC2)cc1)c1ccc(-c2cccc([N+](=O)[O-])c2)o1	18.0	6.1	17.3*	-13.5	-2.2	2.2	1.1
COc1ccc(NC(=O)c2ccc(-c3ccc([N+](=O)[O-])cc3)o2)cc1OC	7.0	4.4	-14.1	-15.9	0.5	-3.5	.
O=C(Nc1ccc(CN2CCOCC2)cc1)c1ccc(-c2cc(Cl)ccc2Cl)o1	12.4	-5.9	26.1*	-18.0	-0.6	1.0	0.4
CC(=O)c1ccc(NC(=O)c2ccc(COc3ccccc3[N+](=O)[O-])o2)cc1	-2.8	14.7	26.6*	-7.4	-0.5	.	2.3
O=C(O)c1ccc(COc2ccccc2[N+](=O)[O-])o1	1.1	1.8	-3.1	12.3	1.6	-0.2	.
C[C@H](CO)N1C[C@H](C)[C@H](CN(C)C(=O)C2CC2)Oc2cc(-c3ccccc3F)ccc2S1(=O)=O	.	.	.	22.7	.	.	.
Cc1noc(C)c1NC(=O)N(C)C[C@H]1OCCCC[C@H](C)Oc2ccc(NC(=O)CCC(F)(F)F)cc2C(=O)N([C@@H](C)CO)C[C@@H]1C	.	.	.	1.8	.	.	.
C[C@@H]1CN([C@@H](C)CO)C(=O)c2cc(NC(=O)Cc3ccccc3)ccc2O[C@@H](C)CCCCO[C@@H]1CN(C)Cc1ccc2c(c1)OCO2	.	.	.	33.5	.	.	.
CN(C[C@@H]1[C@H](c2ccccc2)[C@@H](CO)N1C(=O)C1CC1)C(=O)c1ccccn1	.	.	.	-11.9	.	.	.
Cc1ccccc1S(=O)(=O)N1CCCCN2[C@H](CO)[C@@H](c3ccc(-c4cccc(F)c4)cc3)[C@H]2C1	.	.	.	-3.3	.	.	.
O=C(Nc1nccs1)c1ccc(-c2cccc([N+](=O)[O-])c2)o1	-0.7	-0.8	26.2*	-13.7	-0.2	-1.0	2.4
COC(=O)Cc1ccc(NC(=O)c2ccc(NC(=O)c3ccco3)cc2)cc1	-3.8	-3.6	34.1*	.	.	2.7	3.2
COC(=O)c1cccc(NC(=O)NC(=O)c2ccc(Cl)cc2)c1	-0.6	.	41.1*	7.2	-0.7	1.0	3.1
CC(=O)Oc1ccc(C(=O)Nc2cccc(NC(=O)c3ccco3)c2)cc1	-4.7	-6.4	-21.2	-6.5	-5.0	-0.4	.
COC(=O)c1ccc(NC(=O)c2cccc(NC(=O)c3ccco3)c2)cc1	6.0	-0.1	16.9*	-10.7	0.5	-0.8	4.0

Among those listed so far, 4 contain four or more nitrogen atoms.
SMILES	DYRK1A inh	CAL PDZ FP-1	dFosB act-1	Yeast UUG start	CAL PDZ FP-2	CDK5 p35 inh	dFosB act-2
COc1cccc2c1[C@@H]1CN(CCCCn3c(=O)[nH]c4c(sc5ncc(-c6ccccc6)nc54)c3=O)C[C@@H]1CO2	6.4	-2.5	39.5*	9.6	-1.8	-2.3	-0.4
Cc1ccc2nc(NC(=O)CN(C)S(=O)(=O)c3cccc4nsnc34)sc2c1	0.6	-1.9	20.6*	-25.1	-2.7	-1.8	1.7
Cc1nn(C)cc1NC(=O)C[C@H]1CC[C@@H]2[C@@H](COc3ccc(NC(=O)C(C)C)cc3C(=O)N2C)O1	.	.	.	-16.4	.	.	.
Cc1noc(C)c1NC(=O)N(C)C[C@H]1OCCCC[C@H](C)Oc2ccc(NC(=O)CCC(F)(F)F)cc2C(=O)N([C@@H](C)CO)C[C@@H]1C	.	.	.	1.8	.	.	.
